Assay results published in PubChem BioAssay AID1479 (National Center for Advancing Translational Sciences (NCATS), 2009).
Several values for one entry are separate records, joined by “and”; a condition that tells them apart may be missing. Equal values may be shown once. This is a selection; strong and weak results do not stand in their true shares. Activity calls are given as the source filed them. Calls come from the whole dose curve; as a rule, active = well fitted curve in either direction with a large enough effect; inconclusive = small, poorly fitted or top-dose-only effect; inactive = flat fitted curve, though single readings scatter.

Assay: Total Fluorescence Counterscreen for Inhibitors of the Interaction of Thyroid Hormone Receptor and Steroid Receptor Coregulator 2
Conditions: TRb/SRC2 Texas Red total fluorescence interference
[1] = at 106 µM (top of the series) unless noted
% is set by controls: 0 for no effect and ±100 for the full control effect.

In the case of `CCOC(=O)Nc1cccc([As](=O)(O)O)c1`, the fluorescence change, negative = quenching [1] is reported as inactive: -1.41%.

For `CN(N=O)C(=N)N[N+](=O)[O-]`, the fluorescence change, negative = quenching [1] was inactive: -1.63%.

For `O=P(Nc1ccccn1)(c1cccc2ccccc12)c1cccc2ccccc12`, the fluorescence change, negative = quenching [1] was inactive: 4.14%.

For `Cc1cc(SC(NC=O)C(Cl)(Cl)Cl)ncn1` (stereo unspecified), the fluorescence change, negative = quenching [1] was inactive: 0.863%.

With `O=[N+]([O-])c1ccc(Nc2ccc(Oc3ccc([N+](=O)[O-])cc3[N+](=O)[O-])cc2)c([N+](=O)[O-])c1` the fluorescence change, negative = quenching [1] was inactive: -0.424%.

For `CCOC(=O)Nc1ccc([As](=O)(O)O)c(O)c1`, the fluorescence change, negative = quenching [1] was inactive: -4.72%.

In the case of `Cc1cc(SC(NC(=O)c2ccccc2)C(Cl)(Cl)Cl)nc(C(C)C)n1` (stereo unspecified), the fluorescence change, negative = quenching [1] is reported as inactive: 0.0308%.

In the case of `CCOC(=O)c1ccc(NC(=O)C(C)(CCl)SC)cc1` (stereo unspecified), the fluorescence change, negative = quenching [1] is reported as inactive: -4.01%.

With `CCC(C)N(CC(C)C)C(=S)SC(NC(C)=O)C(Cl)(Cl)Cl` (stereo unspecified) the fluorescence change, negative = quenching [1] was inactive: 1.95%.

In the case of `COP1(=S)c2c(C)nn(CCC#N)c2N=C(c2ccc(F)cc2)N1C` (stereo unspecified), the fluorescence change, negative = quenching [1] is reported as inactive: -1.33%.

In the case of `CCCCO[P+](=O)OCCCC`, the fluorescence change, negative = quenching [1] is reported as inactive: -3.59% [at 201 µM].

With `COc1ccc(N/C(=N/P(=O)(N2CCOCC2)N2CCOCC2)N2CCOCC2)cc1` the fluorescence change, negative = quenching [1] was inactive: -3.24%.

For `Cc1c2c(nc3ccccc13)SC(C(Cl)Cl)C2` (stereo unspecified), the fluorescence change, negative = quenching [1] was inactive: -1.66%.

With `Cc1cc(=O)[nH]c(N[N+](=O)[O-])n1` the fluorescence change, negative = quenching [1] was inactive: -0.511%.

In the case of `O=C(OC1CN2CCC1CC2)C12CC3CC(CC(C3)C1)C2` (stereo unspecified), the fluorescence change, negative = quenching [1] is reported as inactive: -1.21%.

In the case of `COc1cc(I)ccc1[As](=O)(O)O`, the fluorescence change, negative = quenching [1] is reported as inactive: -2.65%.

For `COc1ccc2nc(NP(=O)(c3ccccc3)c3ccccc3)sc2c1`, the fluorescence change, negative = quenching [1] was inactive: -1.41%.

For `ClCCSc1nnc(-c2cccnc2)o1`, the fluorescence change, negative = quenching [1] was inactive: -3.01%.

For `CC(C)c1ccc(OP(=O)(Nc2ccccn2)Oc2ccccc2F)cc1` (stereo unspecified), the fluorescence change, negative = quenching [1] was inactive: -0.716%.

In the case of `O=[N+]([O-])c1cc([N+](=O)[O-])c(-c2ccn[nH]2)s1`, the fluorescence change, negative = quenching [1] is reported as inactive: -0.757%.

For `CC(C)NC(=O)NP(=O)(Oc1ccccc1)Oc1ccccc1`, the fluorescence change, negative = quenching [1] was inactive: 1.53%.

In the case of `CCN(CC)C(=S)SC(NC=O)C(Cl)(Cl)Cl` (stereo unspecified), the fluorescence change, negative = quenching [1] is reported as inactive: -1.83%.

For `C[As](=O)(O)c1cccc(C(=O)O)c1`, the fluorescence change, negative = quenching [1] was inactive: -1.62%.

For `O=[As](O)(c1ccc(O)cc1)c1ccccc1O`, the fluorescence change, negative = quenching [1] was inactive: -2.31%.

For `Cc1ccc(OP(=O)(Nc2ccc([N+](=O)[O-])cn2)Oc2ccc(C)cc2)cc1`, the fluorescence change, negative = quenching [1] was inactive: -1.17%.

With `Cc1ccc2nc3c(c(C)c2c1)CC(C(Cl)Cl)S3` (stereo unspecified) the fluorescence change, negative = quenching [1] was inactive: -18.4%.

In the case of `O=[N+]([O-])CC(O)c1ccc([N+](=O)[O-])cc1` (stereo unspecified), the fluorescence change, negative = quenching [1] is reported as inactive: -3.27%.

With `NC(=O)Nc1ccc([As](=O)(O)O)cc1` the fluorescence change, negative = quenching (at 53 µM (top of the series)) was inactive: -4.01% and the fluorescence change, negative = quenching (at 106 µM (top of the series)) was inactive: -1.55% and inactive: -1%.

In the case of `CN(C(=O)Cc1ccccc1)[C@@H]1CC[C@]2(CCCO2)C[C@H]1N1CCCC1`, the fluorescence change, negative = quenching [1] is reported as inactive: -4.59%.

In the case of `CCOP1(=S)c2c(C)nn(CCC#N)c2N=C(c2ccc(F)cc2)N1C` (stereo unspecified), the fluorescence change, negative = quenching [1] is reported as inactive: -0.684%.

For `O=[N+]([O-])c1ccc2c(c1)nnn2O`, the fluorescence change, negative = quenching [1] was inactive: -3.63%.

For `O=P(Nc1nccs1)(Oc1ccccc1)Oc1ccccc1`, the fluorescence change, negative = quenching [1] was inactive: -2.26%.

In the case of `O=P(Nc1nccs1)(c1ccccc1)c1nc2ccccc2s1` (stereo unspecified), the fluorescence change, negative = quenching [1] is reported as inactive: -0.657%.

In the case of `CCOP1(=S)c2c(C)nn(CCC#N)c2N=C(c2ccccc2F)N1C` (stereo unspecified), the fluorescence change, negative = quenching [1] is reported as inactive: 0.164%.

With `CS(=O)(=O)c1cc([N+](=O)[O-])c2no[n+]([O-])c2c1` the fluorescence change, negative = quenching [1] was inactive: -4.61%.

In the case of `Nc1ccccc1[As](=O)(O)c1ccccc1`, the fluorescence change, negative = quenching [1] is reported as inactive: -1.83%.

For `O=C(O)COc1ccc([As](=O)(O)O)cc1[N+](=O)[O-]`, the fluorescence change, negative = quenching [1] was inactive: -0.519%.

With `Cc1ccc(NCCc2c([N+](=O)[O-])cc([N+](=O)[O-])cc2[N+](=O)[O-])cc1` the fluorescence change, negative = quenching [1] was inactive: 3.61%.

In the case of `Nc1cccc2c([As](=O)(O)O)cccc12`, the fluorescence change, negative = quenching [1] is reported as inactive: 6.22%.

With `CCCOP(=S)(Nc1nc(N)cc(=O)[nH]1)OCCC` the fluorescence change, negative = quenching [1] was inactive: -1.9%.

In the case of `CCOP(=O)(Nc1cccc2ccccc12)OCC`, the fluorescence change, negative = quenching [1] is reported as inactive: -1.23%.

With `COc1cc(C2NCCC3(OCCO3)C2(C)C)cc(OC)c1OC` (stereo unspecified) the fluorescence change, negative = quenching [1] was inactive: 0.187%.

With `CN(C(=O)Cc1ccc(Cl)c(Cl)c1)[C@@H]1CC[C@]2(CCCO2)C[C@H]1N1CCCC1` the fluorescence change, negative = quenching [1] was inactive: -2.21% and inactive: -4.19%.

In the case of `O=C(OC1CN2CCC1CC2)c1ccc(Cl)cc1` (stereo unspecified), the fluorescence change, negative = quenching [1] is reported as inactive: 1.01%.

With `O=[As](O)(O)c1cccnc1` the fluorescence change, negative = quenching [1] was inactive: -4.57%.

In the case of `COc1cc(C(=O)NCC2(N3CCOCC3)CCCCC2)cc(Cl)c1OC(C)C`, the fluorescence change, negative = quenching [1] is reported as inactive: -1.72%.

In the case of `O=[As](O)(c1cccc(O)c1)c1cccc(O)c1`, the fluorescence change, negative = quenching [1] is reported as inactive: -5.54%.

For `ClP(Cl)c1ccccc1`, the fluorescence change, negative = quenching [1] was inactive: -1.76% [at 201 µM].

For `CC(C)/C=N\N=C(\N)N[N+](=O)[O-]`, the fluorescence change, negative = quenching [1] was inactive: 0.686%.

With `O=[As](O)(c1ccccc1Br)c1ccccc1Br` the fluorescence change, negative = quenching [1] was inactive: -4.77%.
